Data reported in patent US20130213851A1, “OMEGA 3 FATTY ACID FORMULATIONS” (CENESTRA LLC., priority 2005, published 2013).

System: Attention Deficit Hyperactivity Disorder (ADHD)-combined type, and Tic Disorder
Experiment: Case report: cognition, attention and tics after OMAX3 augmentation
Type: in vivo, human
Conditions: past use for tics, patient history
Protocol: […] […] Past medication trials included: Strattera (atomoextine), Adderall, Adderall XR, methylphenidate, Tenex (guanfacine), and Concerta. His most recent medication treatment was with Concerta 54 mg per day.
R's Tic Disorder was comprised of both vocal and motor tics in the form of random verbalizations or screeching sounds, as well as either a facial and neck twitch.
The patient was treated with OMAX3, 2 capsules per day (1125 mg EPA, 275 mg DHA, 1500 mg Total Omega-3 fatty acids) for the purpose of enhancing their attention and cognitive function.

For `Cc1nc2n(c(=O)c1CCN1CCC(c3noc4cc(F)ccc34)CC1)CCCC2` [Risperdal, risperidone], the tolerability was “poor tolerability”.
